# Values quoted from earlier work, collected in patent US9399145B2, “Nanoscale neuromodulating platform for retina neuron activation apparatus and method” (The Board of Trustees of the University of Illinois, priority 2005, dated 2016).
# By UniProt entry, the sequences of proteins in these tests, tags left out. Residues count along the entry.
# UniProt P24046, 22-479: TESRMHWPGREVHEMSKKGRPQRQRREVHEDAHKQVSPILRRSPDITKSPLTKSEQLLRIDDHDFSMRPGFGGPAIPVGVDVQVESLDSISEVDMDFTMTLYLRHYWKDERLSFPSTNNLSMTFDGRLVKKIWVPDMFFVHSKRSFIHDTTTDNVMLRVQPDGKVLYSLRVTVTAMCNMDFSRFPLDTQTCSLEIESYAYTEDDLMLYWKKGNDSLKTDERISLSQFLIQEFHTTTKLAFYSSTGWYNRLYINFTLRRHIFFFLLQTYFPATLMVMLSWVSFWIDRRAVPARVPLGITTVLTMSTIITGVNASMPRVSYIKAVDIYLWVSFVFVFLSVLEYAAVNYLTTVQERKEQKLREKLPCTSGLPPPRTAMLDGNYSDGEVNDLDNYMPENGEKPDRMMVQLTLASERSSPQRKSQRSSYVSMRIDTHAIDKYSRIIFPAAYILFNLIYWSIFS
# Molecular target: GABAc (Homo sapiens, UniProt P24046)
# Conditions: Chebib et al., 1997b; cited from earlier work
structure (smiles),measurement,value
"CCCCP(=O)(O)CCCN [CGP36742, 3-aminopropyl n-butyl phosphinic acid]",IC50,60 µM
